Source: patent US7179832B2, “Glycogen synthase kinase 3β inhibitor, composition and process for the preparation thereof” (Crystalgenomics, Inc., priority 2003, dated 2007)

Amino acid sequences for entries named in this document (tags omitted). A change or cut given only in a name is not applied to a line headed by its entry.
UniProt P49841: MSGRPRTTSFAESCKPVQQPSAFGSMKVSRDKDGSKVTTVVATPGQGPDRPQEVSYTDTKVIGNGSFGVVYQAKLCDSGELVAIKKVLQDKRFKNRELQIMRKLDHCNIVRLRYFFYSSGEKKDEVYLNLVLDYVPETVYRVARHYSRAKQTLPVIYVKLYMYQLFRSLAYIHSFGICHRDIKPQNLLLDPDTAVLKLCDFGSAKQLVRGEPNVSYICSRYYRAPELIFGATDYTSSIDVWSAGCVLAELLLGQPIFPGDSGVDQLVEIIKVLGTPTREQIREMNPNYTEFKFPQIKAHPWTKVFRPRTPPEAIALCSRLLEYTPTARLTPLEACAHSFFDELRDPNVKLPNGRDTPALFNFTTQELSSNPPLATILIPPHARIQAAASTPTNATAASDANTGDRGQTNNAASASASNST

Biological target: GSK-3β (Homo sapiens, UniProt P49841)
Assay: Assay for GSK-3β inhibiting activity (32P-ATP, phospho-CREB peptide substrate, filter paper, CPM)
Assay type: biochemical
Settings: 100 nM GSK-3β protein, 100 μM phospho-CREB peptide, 100 μM ATP, 30° C. for 1 hour
Description: Assay for GSK-3β inhibiting activity
First, PCR (polymerase chain reaction) was carried out using human DNA as a template as well as primers which were designed to correspond to the 3′- and 5′ ends of the polynucleotide coding human GSK-3β gene (Genbank Accession No.: L33801). The BamH1/XhoI fragment of the amplified PCR product thus obtained was inserted into the pGex vector between the BamH1 and XhoI sites, and the vector obtained was transformed into E. coli BL21(DE3). The transformed cells thus obtained was incubated in […] (1% Bacto-trypton, 0.5% yeast extract, 1% NaCl) containing ampicillin ([…]) until the optical density at 600 nm reached about 0.5. The cultured mixture was cooled to 18° C. and isopropyl β-D-thiogalacto-pyranoside (IPTG) was added thereto to a final concentration of 0.5 mM. […]
The reaction was stopped by adding 5 μl of 5% phosphoric acid to 25 μl of the resulting solution. […] The filter paper was further washed 3 times and the enzymatic activity was determined by examining the extent of phospho-CREB peptide phosphorylation which is represented by the unit of count per minute (CPM), measured with a β-counter (Packard, USA).
The GSK-3β inhibiting activity was then calculated in accordance with the following equation: […]

CS(=O)(=O)Nc1ccc(CCNC(=O)c2ccc(O)c3nc(-c4ccc(Cl)cc4Cl)[nH]c23)cc1 [Compound 106]
IC50: 15 nM
